Earlier results in patent publication US11891351B2, “Synthesis of capsaicin derivatives” (dated 2024).

Key:
[1] = EFSA NDA Panel et al., EFSA Journal 2019, 17(6), e05718
[2] = Rage Paulsen et al., Toxicology Research and Application 2018, 2, 1
[3] = system: gene mutations and chromosomal damage; conditions: Rage Paulsen et al., Toxicology Research and Application 2018, 2, 1

## COc1cc(CNC(=O)CCCCC#Cc2ccccc2)ccc1O
[1]
  safety assessment by the European Food Safety Authority: regarded as safe
[2]
  systemic toxicity: low systemic toxicity
[3]
  safety with regards to gene mutations and chromosomal damage: safe with regards to gene mutations and chromosomal damage
